Biological target: the molecule itself
Test: SEC + other: glycerol gradient sedimentation; hydrodynamic analysis of KIF1C-Flag in human cell lysate at 150 mM NaCl; fractions immunoblotted with anti-KIF1C; apparent MW

B1: KIF1C-Flag (KIF1C-2xFlag) (natural protein, human, UniProt O43896 1-1103, looked up)
chain: MAGASVKVAVRVRPFNARETSQDAKCVVSMQGNTTSIINPKQSKDAPKSFTFDYSYWSHTSTEDPQFASQQQVYRDIGEEMLLHAFEGYNVCIFAYGQTGAGKSYTMMGRQEPGQQGIVPQLCEDLFSRVSENQSAQLSYSVEVSYMEIYCERVRDLLNPKSRGSLRVREHPILGPYVQDLSKLAVTSYADIADLMDCGNKARTVAATNMNETSSRSHAVFTIVFTQRCHDQLTGLDSEKVSKISLVDLAGSERADSSGARGMRLKEGANINKSLTTLGKVISALADMQSKKRKSDFIPYRDSVLTWLLKENLGGNSRTAMIAALSPADINYEETLSTLRYADRTKQIRCNAIINEDPNARLIRELQEEVARLRELLMAQGLSASALEGLKTEEGSVRGALPAVSSPPAPVSPSSPTTHNGELEPSFSPNTESQIGPEEAMERLQETEKIIAELNETWEEKLRKTEALRMEREALLAEMGVAVREDGGTVGVFSPKKTPHLVNLNEDPLMSECLLYHIKDGVTRVGQVDMDIKLTGQFIREQHCLFRSIPQPDGEVVVTLEPCEGAETYVNGKLVTEPLVLKSGNRIVMGKNHVFRFNHPEQARLERERGVPPPPGPPSEPVDWNFAQKELLEQQGIDIKLEMEKRLQDLENQYRKEKEEADLLLEQQRLYADSDSGDDSDKRSCEESWRLISSLREQLPPTTVQTIVKRCGLPSSGKRRAPRRVYQIPQRRRLQGKDPRWATMADLKMQAVKEICYEVALADFRHGRAEIEALAALKMRELCRTYGKPDGPGDAWRAVARDVWDTVGEEEGGGAGSGGGSEEGARGAEVEDLRAHIDKLTGILQEVKLQNSSKDRELQALRDRMLRMERVIPLAQDHEDENEEGGEVPWAPPEGSEAAEEAAPSDRMPSARPPSPPLSSWERVSRLMEEDPAFRRGRLRWLKQEQLRLQGLQGSGGRGGGLRRPPARFVPPHDCKLRFPFKSNPQHRESWPGMGSGEAPTPLQPPEEVTPHPATPARRPPSPRRSHHPRRNSLDGGGRSRGAGSAQPEPQHFQPKKHNSYPQPPQPYPAQRPPGPRYPPYTTPPRMRRQRSAPDLKESGAAV
notes: KIF1C, human, full length; also called pKIF1C-2xFlag; pKIF1C^RIP1-2Flag; source: human cell lysate (hydrodynamic analysis); HEK293, transfected, in lysate (co-IP)
  stoichiometry N: 2
